Data as given in paper PMC11187553 (RSC Medicinal Chemistry, 2024).

System: SH-SY5Y cells
Assay: Cytotoxic effects in SH-SY5Y cells
Type: cell-based, human
Conditions: 0.1-100 μM, 24, 48 or 72 h

CC1=C(NCc2ccc(C(=O)Nc3ccccc3N)cc2)C(=O)c2ccccc2C1=O [Compound 6, N-(2-Aminophenyl)-4-(((3-methyl-1,4-dioxo-1,4-dihydronaphthalen-2-yl)amino)methyl)benzamide]
cytotoxicity (in words): highest cytotoxicity
